High-throughput results (PubChem)
Nrf2 activator: Nrf2 pathway activation | AREc32 ARE-luciferase reporter (MCF7-derived line), luminescence, 24 h | actives 0.31% (n = 410,000) | Potency, µM (titrated, usually from 46.1 µM), actives largely listed as activators; further: nearly all actives have a fitted effect of over 65% in size
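ARE activation measured as luciferase luminescence (Steady-Glo, 30 min RT) in AREc32_Fluc cells after 24 hr compound exposure at 37 deg C, 5% CO2; cells seeded overnight at 1000/well in OPTI-MEM, 5% FBS.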
ClpP mod: qHTS Assay for Activators of ClpP | actives 1.9% (n = 340,000) | AID 651965, 2013 | Potency, µM (highest dose often 57.5 µM) | purified B. subtilis ClpP, FRET peptide cleavage, 20 min; active means well fitted falling curve with a large enough effect; inconclusive means small, poorly fitted or top-dose-only effect; inactive means no such curve, though single readings can be large or run the other way; further: the source files actives as falling curves though it sought activators and does not explain the sign; nearly all actives have a fitted effect of over 65% in size
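Purified B. subtilis ClpP, 10 microg/mL final in Tris/HCl pH8 with KCl, BSA, glycerol and Tween-20, cleaved an Abz/nitrotyrosine-quenched decapeptide. Fluorescence (ex 320, em 430) was read at 0 and 20 min at room temperature. Delta was normalized to 5.8 microM ADEP and DMSO/no-enzyme controls.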
TCR activator: T cell receptor activation. 330,000 tested, under 10 active. Potency, µM (top dose mostly 9.22 µM), most hits filed as activators. primary human leukocytes, anti-CD3, IL-2 HTRF, 48 h
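Primary human leukocytes were stimulated with a-CD3 beads plus compounds for 48 hr without co-stimulation; secreted IL-2 was quantified by HTRF using a-IL-2-K (europium cryptate) and a-IL-2-d2, excited at 320nm with acceptor emission read at 665nm.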
miR-21 reporter: raises the signal of a miR-21 reporter; HeLa miR-21 FLuc reporter, luciferase, 48 h; Potency, µM (top dose mostly 38.3 µM); AID 2288; 340,000 tested, under 10 active; active = well fitted rising curve with a large enough effect; inconclusive = small, poorly fitted or top-dose-only effect; inactive = no such curve, though single readings can be large or run the other way;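 note: miR-21 action dims this reporter so a rising signal means less miR-21 action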
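HeLa cells stably expressing CMV-driven firefly luciferase with a downstream miR-21 binding sequence, endogenously expressing miR-21, were treated with titrations (up to about 40uM final) for 48 hours at 37 degree Celsius. Luciferase luminescence was read after lysis.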
A549 viability: A549 cytotoxicity, counter-screen for Nrf2 inhibitors; actives 0.16% (n = 390,000); AID 504648; A549 ARE-Fluc cells, CellTiter-Fluor viability, 18-24 h; Potency, µM (doses to about 46 µM), actives largely listed as inhibitors
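A549 ARE-Fluc cells in 5% FBS OPTI-MEM, 5000 cells/well, rested 2 h then exposed to compounds in concentration-response for 18-24 h at 37 °C. Viability by CellTiter-Fluor fluorescence (Ex 405/Em 525) after 30 min; luciferase luminescence (BugLite, 15 min, RT) read afterwards.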
Nrf2 inh: inhibitors of Nrf2 signaling. A549 ARE-Fluc reporter, luciferase luminescence, 18-24 h. Potency, µM (top dose mostly 46 µM), most hits filed as inhibitors. actives 2.1% (n = 360,000); further: nearly all actives have a fitted effect of over 60% in size
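Cells were seeded and rested 2 h, then exposed to compounds for 18-24 h. CellTiter-Fluor was read first as a viability measure. BugLite was added 15 min before the final luminescent read of ARE-luciferase activity in A549 cells.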
A number is an active result; i = inactive; ? = inconclusive; nt = no result given. Most compounds without a hit are left out; they make up all but 3.7% or so of the library. Unless noted, the call rests on the fitted dose curve; in most records, active means well fitted curve in the direction sought with a large enough effect; inconclusive means small, poorly fitted or top-dose-only effect, or another doubt; inactive means no such curve, though single readings can be large; an effect the other way counts as inactive or inconclusive.

SMILES | Nrf2 activator | ClpP mod | TCR activator | miR-21 reporter | A549 viability | Nrf2 inh
O=C(Nc1ccc(Cl)c(C(F)(F)F)c1)[C@@H]1CC=C[C@@H]2CCN(Cc3ccc(Cl)c(Cl)c3)C(=O)[C@@H]21 | i | i | i | nt | i | 11.6µM
O=C(Nc1nccs1)[C@@H]1CC=C[C@@H]2CCN(Cc3ccc(Cl)c(Cl)c3)C(=O)[C@@H]21 | nt | i | nt | nt | nt | nt
CC(=O)NC(c1ccc(Cl)cc1)c1ccc2cccnc2c1O (centres undefined) | i | i | nt | nt | i | ?
CC(=O)NC(c1ccco1)c1ccc2cccnc2c1O (centres undefined) | i | i | i | ? | i | 16.4µM
CC(C)C(=O)NC(c1ccc(Cl)cc1Cl)c1ccc2cccnc2c1O (centres undefined) | i | i | i | i | ? | 13µM
COc1ccc(C(C)=O)cc1CSc1nc(NCc2ccccc2)c2ccccc2n1 | i | i | nt | ? | 23.1µM | nt
Nc1nc(SCC(=O)Nc2cccc(Oc3ccccc3)c2)n[nH]1 | i | i | i | i | i | 16.4µM
NC(=O)C1CCN(C(=O)CCC(=O)c2cccs2)CC1 | i | nt | i | nt | i | i
O=S(=O)(c1ccc(Cl)cc1)c1nc(-c2ccccc2Br)oc1NCc1ccccc1 | i | 20µM | nt | i | i | i
Cc1ccccc1-c1nc(S(=O)(=O)c2ccc(Br)cc2)c(NCc2cccnc2)o1 | i | i | i | i | i | ?
S=C(NCCCc1cnc[nH]1)NCCN(Cc1ccc(Cl)c(Cl)c1)c1ccc(Br)cn1 | nt | nt | nt | nt | i | i
CCOC(=O)Cc1c(C)c2c(C)nn(-c3ccccc3)c2oc1=O | i | 35.5µM | nt | i | i | ?
CCOC(=O)CCn1nc(C)c2c(C)n(-c3ccccc3)nc2c1=O | i | i | nt | i | i | i
[2H]C(CCOS(N)(=O)=O)c1ccc(C(C)(C)C)cc1 (centres undefined) | i | i | i | i | i | 5.17µM
NS(=O)(=O)OCCCc1ccccc1 | i | i | i | i | i | i
CN1C=CC(=O)[C@@H](OC(=O)Nc2ccc(Br)cc2)[C@H]1c1ccccc1Br | i | i | i | nt | i | i
CC1CCCCC12NC(=O)N(CC(=O)OCC(=O)c1ccc(OC(F)F)cc1OC(F)F)C2=O (centres undefined) | i | i | i | i | i | i
COc1nc(=O)n(C2OC(CO)C(O)C2O)cc1C (centres undefined) | i | 35.5µM | i | nt | i | i
Nc1ccn([C@@H]2O[C@H](CO)[C@@H](O)[C@@H]2O)c(=O)n1 | i | i | i | i | i | ?
COc1ccc(C2C(C#N)=C(SCC(=O)Nc3ccc(C)cc3)NC3=C2C(=O)CC(C)(C)C3)cc1 (centres undefined) | i | 22.4µM | i | i | ? | ?
CCNC(=S)NN=C1CCC(C(C)(C)C)CC1 (centres undefined) | i | 28.2µM | i | i | i | ?
CC(C)(C)C1CCC(=NNC(=S)Nc2cccnc2)CC1 (centres undefined) | i | nt | i | i | i | i
Cc1cc(N2CCCC2)nc2ccc(NC(=S)NCCCN3CCC(C)CC3)cc12 | i | nt | i | i | 9.2µM | i
Fc1ccc(-c2nn(-c3ccc(Cl)cc3)c3c2cnc2ccc(F)cc23)cc1 | i | i | nt | i | i | nt
CCC(=O)Nc1ccc(-c2nnc(SCc3ccccc3)n2C)cc1 | nt | i | nt | nt | nt | nt
SMILES | Nrf2 activator | ClpP mod | TCR activator | miR-21 reporter | A549 viability | Nrf2 inh
COc1ccc(CNC(=O)c2cnn(-c3ccc(OC)cc3)c2C2CCN(C(=O)OC(C)(C)C)CC2)cc1 | i | i | nt | i | i | ?
Cc1ccc(-n2ncc(C(=O)NCc3ccc4c(c3)OCO4)c2C2CCN(C(=O)OC(C)(C)C)CC2)cc1C | i | i | nt | ? | i | 18.4µM
Cc1cccc(C)c1-n1ncc(C(=O)NCc2ccc3c(c2)OCO3)c1C1CCN(C(=O)OC(C)(C)C)CC1 | i | i | nt | i | i | ?
COc1ccc(-n2ncc(C(=O)NCc3ccc4c(c3)OCO4)c2C2CCN(C(=O)OC(C)(C)C)CC2)cc1 | i | i | nt | i | i | 16.4µM
C[C@H]1CN([C@@H](C)CO)C(=O)c2cc(Br)cnc2O[C@@H]1CN(C)S(=O)(=O)c1cn(C)cn1 | i | i | nt | nt | nt | nt
Cc1cc(NCCCN2CCOCC2)n2nc(C)c(-c3ccccc3)c2n1 | i | i | i | i | i | nt
Cc1cc(NCc2ccccn2)n2ncc(-c3ccc(Cl)cc3)c2n1 | i | nt | i | i | i | ?
Cc1cc(NCCC(C)C)n2nc(C)c(-c3ccccc3)c2n1 | i | 28.2µM | i | i | i | i
Cc1cc(NCc2ccccn2)n2nc(C)c(-c3ccc(Cl)cc3)c2n1 | i | i | i | ? | i | 16.4µM
Cc1cc(C)n2nc(SCc3ncc(-c4ccccc4)o3)nc2n1 | i | ? | i | i | i | i
Cc1cc(C)n2nc(SCc3nnc(-c4ccccc4Br)o3)nc2n1 | i | 17.8µM | i | i | i | i
O=S1(=O)N=C(Oc2ccc(Br)cc2)c2ccccc21 | nt | nt | nt | nt | i | i
COc1ccc(C2=Nc3ccccc3N(C(=O)c3ccncc3)C2C(=O)NC(C)(C)C)cc1 (centres undefined) | nt | i | nt | nt | nt | nt
Cn1c(CSc2nc3ccc(Br)cc3[nH]2)nc2ccccc21 | i | i | i | i | ? | 20.6µM
N#C/C(=C/c1ccc(N2CCOCC2)o1)c1ccc(Br)cc1 | 11.2µM | i | i | i | i | i
N#C/C(=C\c1ccc(N2CCOCC2)o1)c1ccccc1 | 14.1µM | i | i | ? | i | ?
COCCNC(=O)c1c[nH]c2ccc(S(=O)(=O)N3CCc4ccccc43)cc2c1=O | i | nt | i | i | i | 16.4µM
COCCNC(=O)c1c[nH]c2ccc(S(=O)(=O)N3CCC4(CC3)OCCO4)cc2c1=O | i | 20µM | i | i | i | i
CC1CCN(S(=O)(=O)c2ccc3[nH]cc(C(=O)NCCN4CCOCC4)c(=O)c3c2)CC1 | i | 25.1µM | i | i | i | i
CCCCNC(=O)c1c[nH]c2ccc(S(=O)(=O)N3CCOCC3)cc2c1=O | i | nt | i | i | i | i
CCc1ccccc1N(C)S(=O)(=O)c1ccc2[nH]cc(C(=O)NCCOC)c(=O)c2c1 | i | 28.2µM | nt | i | i | nt
COCCNC(=O)c1c[nH]c2ccc(S(=O)(=O)Nc3ccccc3F)cc2c1=O | i | i | i | i | i | i
CCOC(=O)Sc1nc2ncncc2[nH]1 | i | i | i | nt | i | i
O=S(=O)(c1ccc(F)c(Cl)c1)N1CCN(C/C=C/c2ccccc2)CC1 | i | i | i | nt | i | i
N=C1N(c2ccccc2)C(=S)C(=Nc2ccccc2)N1c1ccccc1 | i | i | i | nt | i | i
